These results are taken from patent US10537561B2 (Novartis AG, priority 2011, dated 2020).

Protein sequences, listed by entry. Tags and fused reporters are not part of them. Residues count along the entry.
UniProt P09619, 33-1106 limits assumed: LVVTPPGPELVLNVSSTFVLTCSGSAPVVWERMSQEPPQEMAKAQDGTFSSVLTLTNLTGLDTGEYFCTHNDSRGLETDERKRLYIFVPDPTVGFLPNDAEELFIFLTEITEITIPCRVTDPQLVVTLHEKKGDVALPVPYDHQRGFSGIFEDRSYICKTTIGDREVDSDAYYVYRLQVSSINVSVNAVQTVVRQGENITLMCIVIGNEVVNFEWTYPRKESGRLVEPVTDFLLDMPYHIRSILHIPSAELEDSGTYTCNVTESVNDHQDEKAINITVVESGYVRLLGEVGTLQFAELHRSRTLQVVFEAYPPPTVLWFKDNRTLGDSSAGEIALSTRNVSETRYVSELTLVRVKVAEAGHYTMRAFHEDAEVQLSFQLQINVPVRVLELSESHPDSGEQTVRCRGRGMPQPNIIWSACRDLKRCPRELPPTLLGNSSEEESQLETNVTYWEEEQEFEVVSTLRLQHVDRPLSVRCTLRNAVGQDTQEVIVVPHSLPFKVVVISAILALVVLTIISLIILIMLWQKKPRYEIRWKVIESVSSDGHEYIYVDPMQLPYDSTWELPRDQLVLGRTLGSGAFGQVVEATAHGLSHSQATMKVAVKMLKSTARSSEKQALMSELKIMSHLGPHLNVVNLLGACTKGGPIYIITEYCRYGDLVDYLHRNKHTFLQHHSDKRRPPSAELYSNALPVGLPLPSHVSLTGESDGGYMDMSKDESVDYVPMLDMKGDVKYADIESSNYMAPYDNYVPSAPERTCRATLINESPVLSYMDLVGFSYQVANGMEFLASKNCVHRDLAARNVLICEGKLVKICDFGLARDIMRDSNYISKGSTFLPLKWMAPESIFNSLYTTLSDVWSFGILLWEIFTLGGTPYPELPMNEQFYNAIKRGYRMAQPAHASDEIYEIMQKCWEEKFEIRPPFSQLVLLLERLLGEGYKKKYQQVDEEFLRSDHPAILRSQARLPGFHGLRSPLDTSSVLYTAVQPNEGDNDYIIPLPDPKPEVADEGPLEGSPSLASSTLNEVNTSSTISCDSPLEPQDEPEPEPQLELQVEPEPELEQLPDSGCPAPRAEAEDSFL
UniProt P07333, 20-972 limits assumed: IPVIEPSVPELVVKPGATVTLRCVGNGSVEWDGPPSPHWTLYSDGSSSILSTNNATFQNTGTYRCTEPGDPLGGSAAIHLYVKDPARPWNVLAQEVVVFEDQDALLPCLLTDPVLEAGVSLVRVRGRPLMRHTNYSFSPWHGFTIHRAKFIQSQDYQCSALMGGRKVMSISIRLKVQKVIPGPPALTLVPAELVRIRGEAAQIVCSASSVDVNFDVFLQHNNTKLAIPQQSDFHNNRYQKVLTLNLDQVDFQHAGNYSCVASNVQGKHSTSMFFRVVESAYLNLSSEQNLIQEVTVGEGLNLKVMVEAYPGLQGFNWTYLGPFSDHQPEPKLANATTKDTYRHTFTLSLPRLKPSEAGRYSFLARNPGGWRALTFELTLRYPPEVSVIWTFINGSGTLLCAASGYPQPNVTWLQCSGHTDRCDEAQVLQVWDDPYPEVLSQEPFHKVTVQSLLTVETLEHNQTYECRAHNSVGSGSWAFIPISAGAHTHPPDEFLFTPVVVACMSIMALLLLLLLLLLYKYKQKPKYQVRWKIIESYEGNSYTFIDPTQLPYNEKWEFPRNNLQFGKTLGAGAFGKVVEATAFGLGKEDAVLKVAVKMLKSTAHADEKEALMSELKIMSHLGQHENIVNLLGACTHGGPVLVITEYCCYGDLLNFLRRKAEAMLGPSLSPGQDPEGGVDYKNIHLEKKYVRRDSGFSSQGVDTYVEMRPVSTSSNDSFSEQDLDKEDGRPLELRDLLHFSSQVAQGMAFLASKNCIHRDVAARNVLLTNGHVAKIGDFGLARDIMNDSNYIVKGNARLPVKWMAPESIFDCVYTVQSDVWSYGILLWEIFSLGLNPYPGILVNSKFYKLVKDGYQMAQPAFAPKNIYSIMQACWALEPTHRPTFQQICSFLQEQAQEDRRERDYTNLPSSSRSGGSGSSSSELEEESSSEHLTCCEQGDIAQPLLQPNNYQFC

For one experiment, the target named is PDGFR-β (Homo sapiens, UniProt P09619). The experiment is described as follows: PDGFR-β inhibition. Format: biochemical. The note with it: read-out: PDGFR-β IC-50.
A further experiment has as its target CSF-1R (Homo sapiens, UniProt P07333). Nature of the experiment: CSF-1R inhibition, biochemical assay. Particulars: read-out: CSF-1R IC-50.

`Cn1cc(-c2cc(Oc3ccc4nc(N[C@H]5CCCC[C@H]5O)sc4c3)ccn2)cn1`: the results for the IC50 at PDGFR-β and at CSF-1R were 630 nM and 2 nM, respectively.
